Patent publication US9340590B2 (priority 2011, dated 2016)
pIC50: −log10 of the molar value. Read-outs that look alike come from different tables or passages of the source.

Sequences of proteins named here, by UniProt entry; tags and fusion partners are left off.
UniProt Q15858, whole entry, looked up: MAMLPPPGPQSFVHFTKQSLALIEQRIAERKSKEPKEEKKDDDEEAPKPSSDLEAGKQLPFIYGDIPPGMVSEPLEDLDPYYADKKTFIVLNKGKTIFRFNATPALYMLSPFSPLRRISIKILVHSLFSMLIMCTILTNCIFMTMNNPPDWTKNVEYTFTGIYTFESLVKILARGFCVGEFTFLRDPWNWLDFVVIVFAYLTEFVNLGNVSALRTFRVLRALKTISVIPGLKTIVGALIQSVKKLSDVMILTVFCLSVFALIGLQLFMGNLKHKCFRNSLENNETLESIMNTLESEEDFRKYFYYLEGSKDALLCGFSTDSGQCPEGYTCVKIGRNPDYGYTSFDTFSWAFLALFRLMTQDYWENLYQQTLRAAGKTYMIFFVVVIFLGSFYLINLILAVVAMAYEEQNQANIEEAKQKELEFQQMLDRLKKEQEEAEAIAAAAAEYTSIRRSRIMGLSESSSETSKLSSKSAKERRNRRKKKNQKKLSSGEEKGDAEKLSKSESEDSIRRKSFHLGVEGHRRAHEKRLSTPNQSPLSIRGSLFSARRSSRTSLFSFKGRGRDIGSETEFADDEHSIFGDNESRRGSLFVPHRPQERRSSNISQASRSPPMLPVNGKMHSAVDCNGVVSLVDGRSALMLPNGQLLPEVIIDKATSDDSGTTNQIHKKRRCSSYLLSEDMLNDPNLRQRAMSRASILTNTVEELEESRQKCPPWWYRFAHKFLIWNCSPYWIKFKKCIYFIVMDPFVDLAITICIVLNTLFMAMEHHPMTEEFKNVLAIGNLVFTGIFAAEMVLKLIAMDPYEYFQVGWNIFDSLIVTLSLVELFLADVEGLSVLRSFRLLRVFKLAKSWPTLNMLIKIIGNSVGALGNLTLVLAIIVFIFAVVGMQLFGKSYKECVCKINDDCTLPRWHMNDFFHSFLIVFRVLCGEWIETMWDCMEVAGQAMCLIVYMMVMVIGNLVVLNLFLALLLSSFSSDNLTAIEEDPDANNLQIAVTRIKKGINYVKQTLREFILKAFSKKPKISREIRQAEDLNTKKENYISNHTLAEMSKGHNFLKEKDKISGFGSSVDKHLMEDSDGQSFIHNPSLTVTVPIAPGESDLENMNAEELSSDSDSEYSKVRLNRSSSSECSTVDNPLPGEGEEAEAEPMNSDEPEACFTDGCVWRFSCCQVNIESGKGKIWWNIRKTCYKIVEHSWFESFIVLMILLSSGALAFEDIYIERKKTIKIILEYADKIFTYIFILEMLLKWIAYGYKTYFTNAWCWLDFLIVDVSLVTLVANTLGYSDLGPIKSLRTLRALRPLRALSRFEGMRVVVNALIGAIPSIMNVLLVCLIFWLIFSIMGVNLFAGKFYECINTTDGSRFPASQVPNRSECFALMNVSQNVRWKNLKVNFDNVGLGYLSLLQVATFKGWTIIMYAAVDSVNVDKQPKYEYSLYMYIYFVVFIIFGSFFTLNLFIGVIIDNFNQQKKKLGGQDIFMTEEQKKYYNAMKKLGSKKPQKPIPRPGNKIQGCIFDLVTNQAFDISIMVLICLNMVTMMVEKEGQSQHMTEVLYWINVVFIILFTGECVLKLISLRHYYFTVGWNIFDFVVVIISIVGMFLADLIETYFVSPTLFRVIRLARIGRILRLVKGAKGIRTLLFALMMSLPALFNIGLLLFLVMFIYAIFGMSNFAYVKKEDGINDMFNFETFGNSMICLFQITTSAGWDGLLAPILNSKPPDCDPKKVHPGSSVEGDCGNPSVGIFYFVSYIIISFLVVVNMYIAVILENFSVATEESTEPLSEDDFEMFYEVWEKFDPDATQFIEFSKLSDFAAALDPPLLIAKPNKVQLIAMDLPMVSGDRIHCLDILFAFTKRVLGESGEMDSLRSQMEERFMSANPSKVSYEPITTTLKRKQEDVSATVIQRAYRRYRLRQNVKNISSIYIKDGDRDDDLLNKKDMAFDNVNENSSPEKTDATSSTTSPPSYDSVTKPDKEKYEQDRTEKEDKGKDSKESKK
UniProt Q14524, whole entry, looked up: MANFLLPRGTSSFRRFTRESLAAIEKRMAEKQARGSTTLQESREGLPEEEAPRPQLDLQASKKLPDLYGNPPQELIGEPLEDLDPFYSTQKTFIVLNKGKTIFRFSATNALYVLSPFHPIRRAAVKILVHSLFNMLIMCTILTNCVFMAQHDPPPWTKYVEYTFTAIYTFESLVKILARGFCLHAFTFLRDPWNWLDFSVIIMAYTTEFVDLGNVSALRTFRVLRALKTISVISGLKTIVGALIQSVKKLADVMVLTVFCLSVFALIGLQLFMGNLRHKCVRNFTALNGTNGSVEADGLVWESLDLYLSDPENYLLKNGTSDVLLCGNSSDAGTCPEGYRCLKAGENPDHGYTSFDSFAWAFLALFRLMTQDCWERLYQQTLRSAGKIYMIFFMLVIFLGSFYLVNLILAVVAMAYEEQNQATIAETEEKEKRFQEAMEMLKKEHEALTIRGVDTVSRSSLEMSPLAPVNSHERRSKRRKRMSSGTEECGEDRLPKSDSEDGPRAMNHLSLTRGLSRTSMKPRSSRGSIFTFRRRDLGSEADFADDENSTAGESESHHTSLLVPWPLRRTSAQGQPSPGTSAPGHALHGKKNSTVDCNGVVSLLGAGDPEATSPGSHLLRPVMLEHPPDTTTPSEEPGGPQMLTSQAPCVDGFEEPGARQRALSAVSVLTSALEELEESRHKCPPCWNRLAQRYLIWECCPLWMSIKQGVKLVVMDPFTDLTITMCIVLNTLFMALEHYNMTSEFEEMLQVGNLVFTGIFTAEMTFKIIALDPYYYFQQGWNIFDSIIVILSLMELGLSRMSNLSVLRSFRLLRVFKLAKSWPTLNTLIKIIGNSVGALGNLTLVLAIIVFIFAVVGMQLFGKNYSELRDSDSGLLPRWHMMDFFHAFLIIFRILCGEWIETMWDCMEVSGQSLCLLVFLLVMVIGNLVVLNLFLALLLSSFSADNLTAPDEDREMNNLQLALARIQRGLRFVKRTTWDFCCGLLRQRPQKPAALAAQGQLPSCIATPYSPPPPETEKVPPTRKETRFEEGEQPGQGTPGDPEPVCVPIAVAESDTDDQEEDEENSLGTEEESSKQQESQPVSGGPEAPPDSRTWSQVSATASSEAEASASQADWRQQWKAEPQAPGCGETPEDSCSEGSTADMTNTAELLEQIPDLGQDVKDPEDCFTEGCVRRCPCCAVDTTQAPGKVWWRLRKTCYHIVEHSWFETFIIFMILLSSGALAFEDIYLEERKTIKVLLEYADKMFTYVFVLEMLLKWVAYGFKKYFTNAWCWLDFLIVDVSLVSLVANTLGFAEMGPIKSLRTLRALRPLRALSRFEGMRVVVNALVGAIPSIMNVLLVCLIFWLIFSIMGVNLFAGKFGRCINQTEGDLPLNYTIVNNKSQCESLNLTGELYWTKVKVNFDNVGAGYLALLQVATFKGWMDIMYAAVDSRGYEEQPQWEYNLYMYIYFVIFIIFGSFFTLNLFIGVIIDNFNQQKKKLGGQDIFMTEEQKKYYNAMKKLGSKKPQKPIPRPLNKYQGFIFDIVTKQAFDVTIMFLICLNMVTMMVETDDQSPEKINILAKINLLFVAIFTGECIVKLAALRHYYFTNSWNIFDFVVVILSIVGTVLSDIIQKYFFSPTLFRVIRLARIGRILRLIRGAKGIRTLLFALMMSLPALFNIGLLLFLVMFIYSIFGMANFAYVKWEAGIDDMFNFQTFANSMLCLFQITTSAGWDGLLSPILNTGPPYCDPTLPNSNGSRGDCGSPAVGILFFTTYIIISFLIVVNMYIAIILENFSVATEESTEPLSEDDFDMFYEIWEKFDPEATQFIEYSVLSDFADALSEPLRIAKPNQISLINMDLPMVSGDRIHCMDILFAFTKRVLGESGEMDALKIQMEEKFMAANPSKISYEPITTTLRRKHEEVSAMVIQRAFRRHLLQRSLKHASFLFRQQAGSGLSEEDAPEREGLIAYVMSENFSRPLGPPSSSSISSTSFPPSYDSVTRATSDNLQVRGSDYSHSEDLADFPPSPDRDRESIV
UniProt Q9NY46, whole entry, looked up: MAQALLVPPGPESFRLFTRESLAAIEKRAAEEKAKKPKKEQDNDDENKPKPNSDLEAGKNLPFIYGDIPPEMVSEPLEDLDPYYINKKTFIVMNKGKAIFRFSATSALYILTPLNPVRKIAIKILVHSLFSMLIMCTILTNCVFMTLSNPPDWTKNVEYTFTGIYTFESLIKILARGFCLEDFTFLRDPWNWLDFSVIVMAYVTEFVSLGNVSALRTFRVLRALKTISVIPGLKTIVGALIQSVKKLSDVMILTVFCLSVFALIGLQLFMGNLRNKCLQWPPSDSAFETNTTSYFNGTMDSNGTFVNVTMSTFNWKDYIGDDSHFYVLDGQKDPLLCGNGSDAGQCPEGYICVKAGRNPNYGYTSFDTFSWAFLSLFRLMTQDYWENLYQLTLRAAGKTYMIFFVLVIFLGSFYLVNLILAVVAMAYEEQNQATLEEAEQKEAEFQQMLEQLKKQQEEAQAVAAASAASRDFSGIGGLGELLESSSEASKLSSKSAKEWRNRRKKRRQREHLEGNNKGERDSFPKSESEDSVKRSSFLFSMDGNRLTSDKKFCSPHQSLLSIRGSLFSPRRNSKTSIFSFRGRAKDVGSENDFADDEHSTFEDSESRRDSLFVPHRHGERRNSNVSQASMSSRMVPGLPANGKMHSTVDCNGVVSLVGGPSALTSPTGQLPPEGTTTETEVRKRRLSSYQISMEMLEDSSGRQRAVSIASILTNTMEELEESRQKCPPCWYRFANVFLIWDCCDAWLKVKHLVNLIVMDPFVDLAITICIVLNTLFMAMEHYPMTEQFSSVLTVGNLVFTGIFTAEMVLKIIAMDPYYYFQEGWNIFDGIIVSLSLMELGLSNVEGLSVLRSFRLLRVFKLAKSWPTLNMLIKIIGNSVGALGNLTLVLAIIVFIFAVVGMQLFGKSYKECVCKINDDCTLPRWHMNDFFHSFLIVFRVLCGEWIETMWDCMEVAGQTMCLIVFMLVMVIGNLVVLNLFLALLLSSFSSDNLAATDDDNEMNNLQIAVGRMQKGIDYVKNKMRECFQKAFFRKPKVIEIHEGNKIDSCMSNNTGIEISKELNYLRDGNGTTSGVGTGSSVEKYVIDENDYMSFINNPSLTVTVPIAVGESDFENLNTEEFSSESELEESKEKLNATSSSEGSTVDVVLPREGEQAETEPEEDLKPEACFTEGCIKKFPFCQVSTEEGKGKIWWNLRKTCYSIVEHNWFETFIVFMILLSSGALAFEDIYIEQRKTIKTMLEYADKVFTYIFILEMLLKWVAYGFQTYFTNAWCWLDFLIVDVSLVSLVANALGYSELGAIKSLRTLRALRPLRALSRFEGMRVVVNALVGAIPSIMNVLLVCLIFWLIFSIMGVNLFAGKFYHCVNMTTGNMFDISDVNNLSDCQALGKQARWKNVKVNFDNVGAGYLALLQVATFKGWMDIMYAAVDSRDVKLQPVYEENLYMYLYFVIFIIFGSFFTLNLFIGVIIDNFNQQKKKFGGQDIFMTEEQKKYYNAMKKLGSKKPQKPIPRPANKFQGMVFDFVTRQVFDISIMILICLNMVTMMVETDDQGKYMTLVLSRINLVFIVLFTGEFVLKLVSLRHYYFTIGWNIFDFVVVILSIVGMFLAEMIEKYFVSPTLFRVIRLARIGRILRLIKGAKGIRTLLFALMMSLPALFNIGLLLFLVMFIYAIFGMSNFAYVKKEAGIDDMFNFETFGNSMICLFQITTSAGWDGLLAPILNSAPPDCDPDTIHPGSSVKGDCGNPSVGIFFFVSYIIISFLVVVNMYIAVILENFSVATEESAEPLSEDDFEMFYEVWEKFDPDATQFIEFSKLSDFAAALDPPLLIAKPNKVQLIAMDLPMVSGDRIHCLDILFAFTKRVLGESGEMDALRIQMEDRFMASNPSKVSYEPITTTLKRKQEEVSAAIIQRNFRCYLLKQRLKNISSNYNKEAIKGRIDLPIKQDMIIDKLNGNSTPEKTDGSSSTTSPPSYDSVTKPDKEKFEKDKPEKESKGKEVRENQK

Experiments:
hNav1.7 [1] = target: T1, hNav1.7 (Homo sapiens, UniProt Q15858); assay: cell-based
hNav1.5 = hNav1.5 (Homo sapiens, UniProt Q14524); assay: cell-based; conditions: IonWorks Quattro, read-out: IWQ Use Nav1.5
hNav1.3 = hNav1.3 (Homo sapiens, UniProt Q9NY46); assay: cell-based
hNav1.7 [2] = target: T1, hNav1.7; format: cell-based
hNav1.7 [3] = target: T1, hNav1.7; assay: cell-based; format: cell-based; conditions: read-out: Nav1.7 Use IC50
[4] = IonWorks Quattro, use-dependent block, hNav1.7, read-out: IWQ Use Nav1.7

Compound | pIC50 (hNav1.7 [1]) | pIC50 (hNav1.5; use-dependent block) | also measured
CC[C@H](C)[C@@H]1NC(=O)[C@@H]2CSSC[C@@H]3NC(=O)[C@H](C(C)C)NC(=O)[C@H](CC(C)C)NC(=O)[C@H](CC(N)=O)NC(=O)[C@@H]4CCCN4C(=O)[C@H](CCCNC(=N)N)NC(=O)[C@H](CSSC[C@H](NC(=O)[C@@H](N)CC(=O)O)C(=O)N[C@@H](CC(C)C)C(=O)NCC(=O)N[C@H](C)C(=O)N[C@@H](Cc4ccccc4)C(=O)N[C@@H](CCCNC(=N)N)C(=O)N[C@@H](CCCCN)C(=O)N2)NC(=O)[C@H](CSSC[C@@H](C(=O)N[C@@H](CCCCN)C(=O)N[C@@H](Cc2ccc(O)cc2)C(=O)N[C@H](C(=O)N[C@@H](Cc2ccccc2)C(N)=O)C(C)C)NC(=O)[C@H](Cc2c[nH]c4ccccc24)NC(=O)[C@H](CCCCN)NC(=O)[C@H](Cc2c[nH]cn2)NC(=O)[C@H]([C@@H](C)O)NC(=O)[C@H](CCCNC(=N)N)NC(=O)[C@H](CO)NC3=O)NC(=O)[C@H](CCCCN)NC(=O)[C@H](CC(=O)O)NC(=O)[C@H](CC(N)=O)NC(=O)[C@H](CC(=O)O)NC(=O)[C@@H]2CCCN2C1=O [compound 602] | 5.68 | 4.88 | pIC50 (hNav1.3): 5.57
CC[C@H](C)[C@@H]1NC(=O)[C@@H]2CSSC[C@@H]3NC(=O)[C@H](C(C)C)NC(=O)[C@H](CC(C)C)NC(=O)[C@H](CC(N)=O)NC(=O)[C@@H]4CCCN4C(=O)[C@H](CCCNC(=N)N)NC(=O)[C@H](CSSC[C@H](NC(=O)[C@@H](N)CC(=O)O)C(=O)N[C@@H](CC(C)C)C(=O)NCC(=O)N[C@@H](Cc4ccccc4)C(=O)N[C@@H](CCSC)C(=O)N[C@@H](CCCNC(=N)N)C(=O)N[C@@H](CCCCN)C(=O)N2)NC(=O)[C@H](CSSC[C@@H](C(=O)N[C@@H](CCCCN)C(=O)N[C@@H](Cc2ccc(O)cc2)C(=O)N[C@H](C(=O)N[C@@H](Cc2ccccc2)C(N)=O)C(C)C)NC(=O)[C@H](Cc2cccc4ccccc24)NC(=O)[C@H](CCCCN)NC(=O)[C@H](Cc2cnc[nH]2)NC(=O)[C@H]([C@@H](C)O)NC(=O)[C@H](CCCNC(=N)N)NC(=O)[C@H](CO)NC3=O)NC(=O)[C@H](CCCCN)NC(=O)[C@H](CC(=O)O)NC(=O)[C@H](CC(N)=O)NC(=O)[C@H](CC(=O)O)NC(=O)[C@@H]2CCCN2C1=O [SEQ ID NO: 79, [1-Nal29]GpTx-1] | 6.34 |  | 
[Phe6,Atz(2 kDa EtO-PEG*-{[Phe6,Atz13*]GpTx-1(1-34)}) 13]GpTx-1(1-34) [Homodimeric Conjugate 1] |  |  | pIC50 (hNav1.7 [2]; read-out: IC50 against hNav1.7 channels): 8.92; pIC50 (hNav1.7 [2]; read-out: IC50 against partially inactivated hNav1.7 channels): 9.18
CC[C@H](C)[C@@H]1NC(=O)[C@@H]2CSSC[C@@H]3NC(=O)[C@H](C(C)C)NC(=O)[C@H](CC(C)C)NC(=O)[C@H](CC(N)=O)NC(=O)[C@@H]4CCCN4C(=O)[C@H](CCCNC(=N)N)NC(=O)[C@H](CSSC[C@H](NC(=O)[C@@H](N)CC(=O)O)C(=O)N[C@@H](CC(C)C)C(=O)NCC(=O)N[C@@H](C)C(=O)N[C@@H](Cc4ccccc4)C(=O)N[C@@H](CCCNC(=N)N)C(=O)N[C@@H](CCCCN)C(=O)N2)NC(=O)[C@H](CSSC[C@@H](C(=O)N[C@@H](CCCCN)C(=O)N[C@@H](Cc2ccc(O)cc2)C(=O)N[C@H](C(=O)N[C@@H](Cc2ccccc2)C(N)=O)C(C)C)NC(=O)[C@H](Cc2c[nH]c4ccccc24)NC(=O)[C@H](CCCNC(=N)N)NC(=O)[C@H](Cc2cnc[nH]2)NC(=O)[C@H]([C@@H](C)O)NC(=O)[C@H](CCCNC(=N)N)NC(=O)[C@H](CO)NC3=O)NC(=O)[C@H](CCCCN)NC(=O)[C@H](CC(=O)O)NC(=O)[C@H](CC(N)=O)NC(=O)[C@H](CC(=O)O)NC(=O)[C@@H]2CCCN2C1=O [compound 809] | 6.52 | < 5.30 | 
CC[C@H](C)[C@@H]1NC(=O)[C@@H]2CSSC[C@@H]3NC(=O)[C@H](C(C)C)NC(=O)[C@H](CC(C)C)NC(=O)[C@H](CC(N)=O)NC(=O)[C@@H]4CCCN4C(=O)[C@H](CCCNC(=N)N)NC(=O)[C@H](CSSC[C@H](NC(=O)[C@@H](N)CC(=O)O)C(=O)N[C@@H](CC(C)C)C(=O)NCC(=O)N[C@H](C)C(=O)N[C@@H](CC(C)C)C(=O)N[C@@H](CCCNC(=N)N)C(=O)N[C@@H](CCCCN)C(=O)N2)NC(=O)[C@H](CSSC[C@@H](C(=O)N[C@@H](CCCCN)C(=O)N[C@@H](Cc2ccc(O)cc2)C(=O)N[C@H](C(=O)N[C@@H](Cc2ccccc2)C(N)=O)C(C)C)NC(=O)[C@H](Cc2c[nH]c4ccccc24)NC(=O)[C@H](CCCCN)NC(=O)[C@H](Cc2c[nH]cn2)NC(=O)[C@H]([C@@H](C)O)NC(=O)[C@H](CCCNC(=N)N)NC(=O)[C@H](CO)NC3=O)NC(=O)[C@H](CCCCN)NC(=O)[C@H](CC(=O)O)NC(=O)[C@H](CC(N)=O)NC(=O)[C@H](CC(=O)O)NC(=O)[C@@H]2CCCN2C1=O [compound 633] | 4.97 |  | pIC50 (hNav1.5; use-dependent protocol): 5.15
CC[C@H](C)[C@@H]1NC(=O)[C@@H]2CSSC[C@@H]3NC(=O)[C@H](C(C)C)NC(=O)[C@H](CC(C)C)NC(=O)[C@H](CC(N)=O)NC(=O)[C@@H]4CCCN4C(=O)[C@H](CCCNC(=N)N)NC(=O)[C@H](CSSC[C@H](NC(=O)[C@@H](N)CC(=O)O)C(=O)N[C@@H](CC(C)C)C(=O)NCC(=O)N[C@@H](C)C(=O)N[C@@H](CC(C)C)C(=O)N[C@@H](CCCNC(=N)N)C(=O)N[C@@H](CCCCN)C(=O)N2)NC(=O)[C@H](CSSC[C@@H](C(=O)N[C@@H](CCCCN)C(=O)N[C@@H](Cc2ccc(O)cc2)C(=O)N[C@H](C(=O)N[C@@H](Cc2ccccc2)C(N)=O)C(C)C)NC(=O)[C@H](Cc2c[nH]c4ccccc24)NC(=O)[C@H](CCCCN)NC(=O)[C@H](Cc2cnc[nH]2)NC(=O)[C@H]([C@@H](C)O)NC(=O)[C@H](CCCNC(=N)N)NC(=O)[C@H](CO)NC3=O)NC(=O)[C@H](CCCCN)NC(=O)[C@H](CC(=O)O)NC(=O)[C@H](CC(N)=O)NC(=O)[C@H](CC(=O)O)NC(=O)[C@@H]2CCCN2C1=O [compound 696] | 6.57 |  | pIC50 (hNav1.5; use-dependent protocol): < 5.30
CC[C@H](C)[C@@H]1NC(=O)[C@@H]2CSSC[C@@H]3NC(=O)[C@H](C(C)C)NC(=O)[C@H](CC(C)C)NC(=O)[C@H](CC(N)=O)NC(=O)[C@@H]4CCCN4C(=O)[C@H](CCCNC(=N)N)NC(=O)[C@H](CSSC[C@H](NC(=O)[C@@H](N)CC(=O)O)C(=O)N[C@@H](CC(C)C)C(=O)NCC(=O)N[C@@H](C)C(=O)N[C@@H](Cc4ccccc4)C(=O)N[C@@H](CCCNC(=N)N)C(=O)N[C@@H](CCCCN)C(=O)N2)NC(=O)[C@H](CSSC[C@@H](C(=O)N[C@@H](CCCCN)C(=O)N[C@@H](Cc2ccc(O)cc2)C(=O)N[C@H](C(=O)N[C@@H](Cc2ccccc2)C(N)=O)C(C)C)NC(=O)[C@H](Cc2c[nH]c4ccccc24)NC(=O)[C@H](CCCCN)NC(=O)[C@H](Cc2cnc[nH]2)NC(=O)[C@H]([C@@H](C)O)NC(=O)[C@H](CCCNC(=N)N)NC(=O)[C@H](CO)NC3=O)NC(=O)[C@H](CCCCN)NC(=O)[C@H](CC(=O)O)NC(=O)[C@H](CC(N)=O)NC(=O)[C@H](CC(=O)O)NC(=O)[C@@H]2CCCN2C1=O [compound 257] |  | 5.30 | pIC50 (hNav1.7 [1]; [4]): 7.15; pIC50 (hNav1.3; IonWorks Quattro, use-dependent block, hNav1.3, read-out: IWQ Use Nav1.3): 7.30
CC[C@H](C)[C@@H]1NC(=O)[C@@H]2CSSC[C@@H]3NC(=O)[C@H](C(C)C)NC(=O)[C@H](CC(C)C)NC(=O)[C@H](CC(N)=O)NC(=O)[C@@H]4CCCN4C(=O)[C@H](CCCNC(=N)N)NC(=O)[C@H](CSSC[C@H](NC(=O)[C@@H](N)CC(=O)O)C(=O)N[C@@H](CC(C)C)C(=O)NCC(=O)N[C@@H](Cc4ccccc4)C(=O)N[C@@H](CCSC)C(=O)N[C@@H](CCCNC(=N)N)C(=O)N[C@@H](CCCCN)C(=O)N2)NC(=O)[C@H](CSSC[C@@H](C(=O)N[C@@H](CCCCN)C(=O)N[C@@H](Cc2ccc(O)cc2)C(=O)N[C@H](C(=O)N[C@@H](Cc2ccccc2)C(N)=O)C(C)C)NC(=O)[C@H](Cc2cccc4ccccc24)NC(=O)[C@H](CCCCN)NC(=O)[C@H](Cc2c[nH]cn2)NC(=O)[C@H]([C@@H](C)O)NC(=O)[C@H](CCCNC(=N)N)NC(=O)[C@H](CO)NC3=O)NC(=O)[C@H](CCCCN)NC(=O)[C@H](CC(=O)O)NC(=O)[C@H](CC(N)=O)NC(=O)[C@H](CC(=O)O)NC(=O)[C@@H]2CCCN2C1=O [[1-Nal29]GpTx-1(1-34)] |  |  | pIC50 (hNav1.7 [3]): 7.48
CC[C@H](C)[C@@H]1NC(=O)[C@@H]2CSSC[C@@H]3NC(=O)[C@H](C(C)C)NC(=O)[C@H](CC(C)C)NC(=O)[C@H](CC(N)=O)NC(=O)[C@@H]4CCCN4C(=O)[C@H](CCCNC(=N)N)NC(=O)[C@H](CSSC[C@H](NC(=O)[C@@H](N)CC(=O)O)C(=O)N[C@@H](CC(C)C)C(=O)NCC(=O)N[C@@H](C)C(=O)N[C@@H](CC(C)C)C(=O)N[C@@H](CCCNC(=N)N)C(=O)N[C@@H](CCCCN)C(=O)N2)NC(=O)[C@H](CSSC[C@@H](C(=O)N[C@@H](CCCCN)C(=O)N[C@@H](Cc2ccc(O)cc2)C(=O)N[C@H](C(=O)N[C@@H](Cc2ccccc2)C(N)=O)C(C)C)NC(=O)[C@H](Cc2c[nH]c4ccccc24)NC(=O)[C@H](CCCNC(=N)N)NC(=O)[C@H](Cc2cnc[nH]2)NC(=O)[C@H]([C@@H](C)O)NC(=O)[C@H](CCCNC(=N)N)NC(=O)[C@H](CO)NC3=O)NC(=O)[C@H](CCCCN)NC(=O)[C@H](CC(=O)O)NC(=O)[C@H](CC(N)=O)NC(=O)[C@H](CC(=O)O)NC(=O)[C@@H]2CCCN2C1=O [compound 810] |  | < 5.30 | pIC50 (hNav1.7 [1]; [4]): 6.70
